# Experimental water solubility values from OPERA 2.9

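The numbers are reported measurements, compiled and curated for the OPERA QSAR suite. A listed value is a point estimate from one report or more. Conditions of the individual experiments are not part of the data. The measured form (salt, isomer or mixture) is not always the one drawn. Some upstream entries may be estimates or bounds without being marked so.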

Solubility in water is on a log10 molar scale (set defined at 25 °C).

C=C1C(=O)O[C@H]2C=C(CO)CCC=C(C)C[C@@H](OC(=O)C(C)CO)C12 (stereo not given in full) has log solubility -2.244 (log10 mol/L).
Nc1ccc(S(=O)(=O)Nc2ccc(S(N)(=O)=O)cc2)cc1 has log solubility -2.759 (log10 mol/L).
CC(CC(=O)O)C(=O)Nc1ccccc1 (stereo unspecified) has log solubility -1.237 (log10 mol/L).
O=[N+]([O-])c1ccc(N=Nc2ccc(N(CCO)CCO)cc2Cl)cc1 has log solubility -5.959 (log10 mol/L).
COC(=O)c1ccc(C(=O)Nc2cc(Cl)ccc2Cl)cc1/N=N/c1c(O)c(C(=O)Nc2ccccc2OC)cc2ccccc12 has log solubility -8.175 (log10 mol/L).
CC(=O)Nc1ccc(Cl)c(Cl)c1 has log solubility -3.25 (log10 mol/L).
COc1ccc(N)cc1Cl has log solubility -1.932 (log10 mol/L).
CC(C)OC(=S)SSC(=S)OC(C)C has log solubility -7.606 (log10 mol/L).
O=C(O[C@H]1[C@@H]2C=CO[C@@H](O[C@@H]3O[C@H](CO)[C@@H](O)[C@H](O)[C@H]3O)[C@@H]2[C@@]2(CO)O[C@@H]12)c1ccc(O)cc1 has log solubility -1.927 (log10 mol/L).
CN1CCC(=C2c3ccccc3CCc3cccnc32)CC1 has log solubility -3.41 (log10 mol/L).
CCCOC(=O)CCC has log solubility -1.92 (log10 mol/L).
C=C(C)C(=O)OCCC[Si](C)(C)O[Si](C)(C)CCCOC(=O)C(=C)C has log solubility -3.069 (log10 mol/L).
CC(=O)C(N=Nc1ccc(-c2ccc(N=NC(C(C)=O)C(=O)Nc3ccc(C)cc3)c(Cl)c2)cc1Cl)C(=O)Nc1ccc(C)cc1 (stereo unspecified) has log solubility -8.102 (log10 mol/L).
CCCCCCN1CCCC1=O has log solubility -1.101 (log10 mol/L).
CCCOC(=O)Cn1cc(I)c(=O)c(I)c1 has log solubility -3.504 (log10 mol/L).
Cc1ccc(S(=O)(=O)NCC(=O)O)cc1 has log solubility -1.443 (log10 mol/L).
CCC(CC)(C(=O)O)C(=O)O has log solubility 0.608 (log10 mol/L).
O=C(NN=Cc1ccc([N+](=O)[O-])o1)c1cccc([N+](=O)[O-])c1 has log solubility -4.992 (log10 mol/L).
CCOC(=O)/C(=C/c1ccccc1)N=CO has log solubility -2.891 (log10 mol/L).
Cc1nc2[nH]cnc(=O)c2nc1C has log solubility -2.267 (log10 mol/L).
Clc1cc(Cl)c2nsnc2c1Cl has log solubility -4.98 (log10 mol/L).
Oc1ccc(CCc2ccccc2)c(O)c1 has log solubility -2.718 (log10 mol/L).
Clc1cccc(Cl)c1NC1=NCCN1 has log solubility -0.1 (log10 mol/L).
O=c1c2ccccc2c(=O)c2c1ccc1c2[nH]c2c3c(=O)c4ccccc4c(=O)c3c3[nH]c4c(ccc5c(=O)c6ccccc6c(=O)c54)c3c12 has log solubility -4.51 (log10 mol/L).
CC(=O)Oc1cc2c(s1)CCN(C(C(=O)C1CC1)c1ccccc1F)C2 (stereo unspecified) has log solubility -5.197 (log10 mol/L).
CCCCCC1CCC(=O)O1 (stereo unspecified) has log solubility -1.855 (log10 mol/L).
CCc1nc(N)c(C)c(CC)n1 has log solubility -2.355 (log10 mol/L).
COc1cc(C(=O)NCc2ccc(OCCN(C)C)cc2)cc(OC)c1OC has log solubility -3.989 (log10 mol/L).
CC(C)(C)C(=O)OCOC(=O)[C@@H]1N2C(=O)[C@@H](N=CN3CCCCCC3)[C@H]2SC1(C)C has log solubility -3.922 (log10 mol/L).
CCC(=O)n1ncc2c(=O)[nH]cnc21 has log solubility -2.807 (log10 mol/L).
CNC(=O)Nc1cccc(Cl)c1 has log solubility -2.41 (log10 mol/L).
CCCCC[C@H](O)/C=C/[C@@H]1[C@@H](C/C=C\CCCC(=O)O)[C@@H](O)C[C@H]1O has log solubility -5.14 (log10 mol/L).
O=C1OC(c2ccc(O)c(-c3ccccc3)c2)(c2ccc(O)c(-c3ccccc3)c2)c2ccccc21 has log solubility -3.559 (log10 mol/L).
CCOC(=O)/C(=C\c1ccc(OC)c(OC)c1)N=CO has log solubility -2.409 (log10 mol/L).
CCC(=O)c1cccc(Cl)c1 has log solubility -1.847 (log10 mol/L).
O=C(O)c1ccnc(C(=O)O)c1C(=O)O has log solubility -1.245 (log10 mol/L).
NS(=O)(=O)c1cc(S(N)(=O)=O)cc(S(N)(=O)=O)c1 has log solubility -2.32 (log10 mol/L).
CC=C(Cc1ccccc1)C(=O)O has log solubility -2.565 (log10 mol/L).
CC(C)(C)c1ccc(OC(=O)c2cc(C(C)(C)C)c(O)c(C(C)(C)C)c2)c(C2C(=O)Oc3ccc(C(C)(C)C)cc32)c1 (stereo unspecified) has log solubility -8.849 (log10 mol/L).
O=C(O)c1cc(Oc2ccc(Cl)cc2Cl)ccc1[N+](=O)[O-] has log solubility -2.52 (log10 mol/L).
O=c1nc(O)c(F)cn1C(O)=Nc1ccccc1 has log solubility -1.618 (log10 mol/L).
CCOC(=O)c1c(C(=O)O)cccc1[N+](=O)[O-] has log solubility -1.916 (log10 mol/L).
O=C1c2cccc(S(=O)(=O)O)c2C(=O)c2cccc(Cl)c21 has log solubility 0.19 (log10 mol/L).
CCOC(=O)/C(=C\c1ccc(OC)cc1)N=CO has log solubility -2.74 (log10 mol/L).
O=C(O)c1ccccc1C(=O)OCCO has log solubility -1.482 (log10 mol/L).
O=C1CC(=O)NC=N1 has log solubility -1.652 (log10 mol/L).
NS(=O)(=O)c1cc2c(s1)CC(O)CS2(=O)=O (stereo unspecified) has log solubility -1.589 (log10 mol/L).
Clc1cc(Oc2c(Cl)ccc(Cl)c2Cl)c(Cl)c(Cl)c1Cl has log solubility -8.89 (log10 mol/L).
Cl.Cl.O=C(O)c1ccc(-c2cnc3ncc(Cc4ccc5ncccc5c4)n3n2)cc1F has log solubility -5.036 (log10 mol/L).
O=C(O)CCc1nc(-c2ccccc2)c(-c2ccccc2)o1 has log solubility -3.955 (log10 mol/L).
CCCCCCCCCCCCCCCCCC(=O)OCC(COC(=O)CCCCCCCCCCCCCCCCC)(COC(=O)CCCCCCCCCCCCCCCCC)COC(=O)CCCCCCCCCCCCCCCCC has log solubility -6.37 (log10 mol/L).
CCCc1nc2c(C)cc(-c3nc4ccccc4n3C)cc2n1Cc1ccc(-c2ccccc2C(=O)O)cc1 has log solubility -5.167 (log10 mol/L).
CN1CC(=O)NC1=N has log solubility -0.15 (log10 mol/L).
O=C1OCCN1N=CC=Cc1ccc([N+](=O)[O-])o1 has log solubility -4.418 (log10 mol/L).
CNC(=O)Nc1ccc(OC)c(Cl)c1 has log solubility -2.27 (log10 mol/L).

Again, the 9 entries with the lowest log solubility:

Listed for Clc1cc(Oc2c(Cl)ccc(Cl)c2Cl)c(Cl)c(Cl)c1Cl: log solubility -8.89 (log10 mol/L).
Listed for CC(C)(C)c1ccc(OC(=O)c2cc(C(C)(C)C)c(O)c(C(C)(C)C)c2)c(C2C(=O)Oc3ccc(C(C)(C)C)cc32)c1 (stereo unspecified): log solubility -8.849 (log10 mol/L).
Listed for COC(=O)c1ccc(C(=O)Nc2cc(Cl)ccc2Cl)cc1/N=N/c1c(O)c(C(=O)Nc2ccccc2OC)cc2ccccc12: log solubility -8.175 (log10 mol/L).
Listed for CC(=O)C(N=Nc1ccc(-c2ccc(N=NC(C(C)=O)C(=O)Nc3ccc(C)cc3)c(Cl)c2)cc1Cl)C(=O)Nc1ccc(C)cc1 (stereo unspecified): log solubility -8.102 (log10 mol/L).
Listed for CC(C)OC(=S)SSC(=S)OC(C)C: log solubility -7.606 (log10 mol/L).
Listed for CCCCCCCCCCCCCCCCCC(=O)OCC(COC(=O)CCCCCCCCCCCCCCCCC)(COC(=O)CCCCCCCCCCCCCCCCC)COC(=O)CCCCCCCCCCCCCCCCC: log solubility -6.37 (log10 mol/L).
Listed for O=[N+]([O-])c1ccc(N=Nc2ccc(N(CCO)CCO)cc2Cl)cc1: log solubility -5.959 (log10 mol/L).
Listed for CC(=O)Oc1cc2c(s1)CCN(C(C(=O)C1CC1)c1ccccc1F)C2 (stereo unspecified): log solubility -5.197 (log10 mol/L).
Listed for CCCc1nc2c(C)cc(-c3nc4ccccc4n3C)cc2n1Cc1ccc(-c2ccccc2C(=O)O)cc1: log solubility -5.167 (log10 mol/L).

Data: OPERA 2.9 data sets, kmansouri/OPERA on GitHub.